{
  "sequences": {"note": "By UniProt entry, the sequences of proteins in these tests, tags left out.", "UniProt P23977, whole entry": "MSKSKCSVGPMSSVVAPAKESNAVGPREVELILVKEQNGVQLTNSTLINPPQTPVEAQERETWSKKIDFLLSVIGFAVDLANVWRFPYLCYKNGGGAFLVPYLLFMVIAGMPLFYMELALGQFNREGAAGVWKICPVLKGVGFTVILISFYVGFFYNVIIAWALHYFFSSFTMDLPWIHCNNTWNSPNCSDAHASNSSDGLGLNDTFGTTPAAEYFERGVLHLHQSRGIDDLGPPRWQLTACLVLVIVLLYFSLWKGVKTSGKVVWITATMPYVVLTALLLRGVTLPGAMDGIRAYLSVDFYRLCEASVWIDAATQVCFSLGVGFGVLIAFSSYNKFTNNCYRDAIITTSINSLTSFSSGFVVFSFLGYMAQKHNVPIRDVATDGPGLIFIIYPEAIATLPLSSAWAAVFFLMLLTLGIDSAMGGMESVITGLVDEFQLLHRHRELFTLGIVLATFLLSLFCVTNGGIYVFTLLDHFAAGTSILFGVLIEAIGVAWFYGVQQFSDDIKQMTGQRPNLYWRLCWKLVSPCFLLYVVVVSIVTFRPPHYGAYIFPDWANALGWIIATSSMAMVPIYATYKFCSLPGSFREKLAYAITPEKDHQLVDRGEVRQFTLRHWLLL"},
  "source": "patent US20030013883A1",
  "about": "“Tropane analogs binding to monoamine transporters” (priority 2000, published 2003)",
  "origin": "cited, not measured here",
  "target": "dopamine transporter (DAT) (Rattus norvegicus, UniProt P23977)",
  "design": "For DAT assays, corpus striatum tissue from rat forebrain was rapidly dissected on ice; from tissue; host or cells: rat corpus striatum",
  "conditions": "radioligand constant used in Cheng-Prusoff conversion; cited from earlier work",
  "note": "pKd: −log10 of the molar value.",
  "data": [
    {"compound": "c1ccc(CCCN2CCN(CCOC(c3ccccc3)c3ccccc3)CC2)cc1", "note": "[[^3H]GBR-12935]", "values": [
      {"measurement": "pKd", "result": 9.00}
    ]}
  ]
}
